Consider one substance from US20090325944A1, “Methods and Compositions for Modulating Glycosylation” (priority 2006, published 2009).

The target of assay [1] is T1, sOGT (Homo sapiens, UniProt O15294).
T1 construct: ncOGT and sOGT are identical to known splice variants; His8 (C); made in house; host or cells: E. coli BL21(DE3)
T1 sequence (O15294 1-665 isoform O15294-4): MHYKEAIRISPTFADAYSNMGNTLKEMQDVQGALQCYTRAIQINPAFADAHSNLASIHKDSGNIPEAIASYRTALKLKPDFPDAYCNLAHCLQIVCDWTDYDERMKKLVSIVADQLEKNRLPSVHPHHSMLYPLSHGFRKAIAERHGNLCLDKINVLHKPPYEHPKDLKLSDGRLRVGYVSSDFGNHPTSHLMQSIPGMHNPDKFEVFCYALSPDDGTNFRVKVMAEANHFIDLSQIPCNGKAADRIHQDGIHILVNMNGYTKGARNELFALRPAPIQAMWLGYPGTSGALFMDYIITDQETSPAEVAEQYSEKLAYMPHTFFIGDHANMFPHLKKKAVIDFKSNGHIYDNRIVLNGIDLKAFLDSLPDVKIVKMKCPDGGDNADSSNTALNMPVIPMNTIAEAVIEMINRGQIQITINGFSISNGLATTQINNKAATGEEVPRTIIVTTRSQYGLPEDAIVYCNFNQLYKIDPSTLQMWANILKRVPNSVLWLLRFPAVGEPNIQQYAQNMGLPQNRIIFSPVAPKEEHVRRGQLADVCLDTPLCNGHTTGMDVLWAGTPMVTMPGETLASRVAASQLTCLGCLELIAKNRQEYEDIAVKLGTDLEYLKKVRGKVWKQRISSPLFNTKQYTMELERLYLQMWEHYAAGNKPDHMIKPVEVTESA
The assay can be described thus: Fluorescence polarization displacement of probe 3 from sOGT (validation with UDP and UDP-GlcNAc). The format is binding. The method, then:
20 μL of this solution is transferred to wells of a 384-well microplate. […] Fluorescence polarization was measured using a Perkin Elmer Envision® microplate reader. Bach series was performed in triplicate and the average of each data point was converted from mP to anisotropy then fitted to the following equation:
[L]0=(KD(Amax−A)/Kd(A−Amin)+1)([E]0−Kd(A−Amin)/(Amax−A)−[t]0(A−Amin)/(Amax−Amin)) eq 3
where A=measured anisotropy at a particular total concentration of ligand (L), sOGT (E) and probe 3 (t), Amin=minimum polarization (i.e., anisotropy of free probe), Amax=final anisotropy (i.e., anisotropy of probe 3 bound entirely to sOGT), KD=dissociation constant of the ligand, Kd=dissociation constant of the probe 3.

The target in assay [2] is T1, sOGT. As to the kind of experiment: Radiometric secondary assay: transfer of UDP-14C-GlcNAc to peptide SEQ ID NO:2 by sOGT. The format is biochemical. Conditions: known peptide substrate held constant, UDP-GlcNAc 0.5-60 μM. The method, then:
The peptide assay was performed as described herein (see procedure for the Secondary assay below), and the Km of UDP-GlcNAc and Kcat were determined by varying the UDP-GlcNAc concentration from 0.5 μM to 60 μM while holding the peptide (SEQ ID NO:2) constant. Nup62 was expressed and purified as previously described by Hanover and co-workers (Lubas, W. A.; Smith, M.; Starr, C. M.; Hanover, J. A.; Biochemistry, 1995, 34, (5), 1686-94) and was stored in 2 M urea at −80° C. […] The nup62 reactions were run for 15-30 minutes, spotted on Whatman MM filter paper, washed with 3×10% TCA for 5 minutes, washed with acetone for 5 minutes, and then counted by liquid scintillation counting. […]
One microliter aliquots (5 mg/nL) of the hits were obtained from the ICCB, and these were normalized to 1.0 mM with DMSO. These compounds were screened at 25 μM in a reaction mixture containing 500 μM peptide (SEQ ID NO:2), 6.25 μM UDP-^14C-GlcNAc, ˜20-40 nM sOGT, and buffer (125 mM NaCl, 1 mM EDTA, 20 mM potassium phosphate, pH=7.4, and 500 μM tris(hydroxypropyl)phosphine. Reactions were spotted on Whatman P81 phosphocellulose discs, washed three times for five minutes in 1% phosphoric acid, and counted by liquid scintillation counting. […]

By Kd is commonly meant the concentration at which binding is half-saturated. As usually defined, the Km is the concentration of substrate that gives half-maximal velocity. On to “uridine diphosphate N-acetylglucosamine [UDP-GlcNAc]”, for which, on sOGT [1] (50 nM probe 3, 1.5 μM sOGT, ligand 50 μM to 98 nM, read-out: KD (dissociation constant) from displacement of probe 3 from sOGT), the equilibrium dissociation constant (Kd) came to 1500 ± 400 nM. Besides, the “extent of displacement of probe 3 from sOGT” value on sOGT [1] (at high concentrations of ligand) is reported as “completely displaced probe 3 from sOGT”. At sOGT [2], the Km turned out to be 6.7 ± 0.5 µM.
